# Literature values as cited in US20120209223A1.
# This is a selection: effects in other tests are not listed, and their absence says nothing.
# Settings: Roy et al., J. Pharm. Sci. 1996
compound,measurement,value
CCC(=O)N(c1ccccc1)C1CCN(CCc2ccccc2)CC1,concentration of fentanyl in the polyisobutylene matrix at which active ingredient is precipitating,more than 4%
